According to ChEMBL document CHEMBL3286161, “Prostanoid receptor EP2 as a therapeutic target” (J Med Chem, 2014):

Legend:
Homo sapiens [1] = organism: Homo sapiens; experiment: Selectivity ratio of Kb for EP4 receptor (unknown origin) to Kb for EP2 receptor (unknown origin)
Homo sapiens [2] = organism: Homo sapiens; experiment: Selectivity ratio of Kb for prostanoid IP receptor (unknown origin) to Kb for EP2 receptor (unknown origin)

Ratio (Homo sapiens [1]): 440
Ratio (Homo sapiens [2]): 22
SMILES: CCc1nnc(NS(=O)(=O)c2ccc(NC(=S)NC(=O)/C=C/c3ccc(F)cc3)cc2)s1
